We go through one compound from ChEMBL document CHEMBL1126139, “Beta-proline analogues as agonists at the strychnine-sensitive glycine receptor” (J Med Chem, 1992).

In general, IC50 refers to the concentration that gives 50% inhibition. A higher IC50 goes with weaker potency.

For the experiment, the target named is T1, Glycine receptor subunit alpha-1 (Rattus norvegicus, UniProt P07727).
T1 sequence (P07727 whole entry): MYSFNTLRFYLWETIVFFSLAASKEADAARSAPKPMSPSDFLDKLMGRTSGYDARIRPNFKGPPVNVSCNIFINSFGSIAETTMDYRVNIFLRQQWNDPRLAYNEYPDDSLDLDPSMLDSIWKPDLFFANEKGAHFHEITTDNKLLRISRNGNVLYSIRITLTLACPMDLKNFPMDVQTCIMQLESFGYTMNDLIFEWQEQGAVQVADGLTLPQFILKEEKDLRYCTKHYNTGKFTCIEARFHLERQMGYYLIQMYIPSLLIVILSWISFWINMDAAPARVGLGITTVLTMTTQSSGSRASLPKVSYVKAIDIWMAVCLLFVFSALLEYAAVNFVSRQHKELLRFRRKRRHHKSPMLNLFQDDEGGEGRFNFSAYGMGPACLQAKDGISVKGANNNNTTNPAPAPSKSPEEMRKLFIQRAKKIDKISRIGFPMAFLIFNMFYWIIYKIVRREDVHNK
As to the kind of experiment: Inhibitory concentration required to inhibit [3H]strychnine binding to […]. In a few lines:
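[3H]Strychnine displacement; IC50 obtained by nonlinear curve fitting to a Langmuir isotherm.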

On to `NCC(=O)O` [GLYCINE], for which the IC50 was 6.2 µM.
